This data set is described as follows: Oil Stability Index (OSI), antioxidant activity in COFA, AOCS Cd 12b-92. The settings on record: 110° C.; Crude COFA; dose 0.0020 Wt %.

SMILES strings stand for the structures.

As to `CCCCCCCCCCCCCCCC(=O)OC[C@H](O)[C@H]1OC(=O)C(O)=C1O` [L-ascorbic acid 6-palmitate], the OSI was determined as 5.45 h.
